target: T1, Met kinase domain (GST fusion protein) (Homo sapiens, UniProt P08581); assay: Met transphosphorylation assay (ELISA, poly(glu-tyr) substrate); format: biochemical; settings: not given;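 also: Cell-free ELISA with plate-bound poly(Glu:Tyr 4:1) phosphorylated by GST-fused Met kinase domain plus ATP and Mn2+, phosphotyrosine detected by anti-phosphotyrosine antibody with HRP and ABTS read-out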
T1 construct: Purified GST fusion protein containing the Met kinase domain
Description: Met Transphosphorylation Assay
• 1. […] PBS, Gibco Catalog # 450-1300EB • 4. 50 mM HEPES • 5. […] TBST Buffer. • 8. 10% aqueous (MilliQue H2O) DMSO. • 9. […] 4× ATP Reaction Mixture: for 10 mL, mix 0.4 mL 1 M manganese chloride and 0.02 mL 0.1 M ATP in 9.56 mL dH2O. • 12. 4× Negative Controls Mixture: for 10 mL, mix 0.4 mL 1 M manganese chloride in 9.6 mL dH2O. • 13. […] 500 mM EDTA. • 15. […] Goat anti-rabbit horseradish peroxidase conjugated antibody, Biosource, Inc. • 18. ABTS Solution: for 1 L, mix 19.21 g citric acid, 35.49 g Na2HPO4 and 500 mg ABTS with sufficient dH2O to make 1 L. • 19. […] 0.2 M HCl Procedure: • 1. […] Block plate with 150 μL of 5% BSA/PBS for 60 min. • 3. […] Add 50 μl of the diluted kinase to all wells. (Purified kinase is diluted with Kinase Dilution Buffer. Final concentration should be 10 ng/well.) • 5. Add 25 μL of the test compound (in 4% DMSO) or DMSO alone (4% in dH2O) for controls to plate. • 6. Incubate the kinase/compound mixture for 15 minutes. • 7. Add 25 μL of 40 mM MnCl2 to the negative control wells. • 8. Add 25 μL ATP/MnCl2 mixture to the all other wells (except the negative controls). Incubate for 5 min. • 9. Add 25 μL 500 mM EDTA to stop reaction. • 10. Wash plate 3× with TBST. • 11. Add 100 μL rabbit polyclonal anti-Ptyr diluted 1:10,000 in Antibody Dilution Buffer to each well. Incubate, with shaking, at room temperature for one hour. • 12. Wash plate 3× with TBST. • 13. […] Add 100 μL per well and incubate at room temperature, with shaking, for one hour. • 14. Wash plate 1× with PBS. • 15. Add 100 μl of ABTS/H2O2 solution to each well. • 16. If necessary, stop the development reaction with the addition of 100 μl of 0.2M HCl per well. • 17.

By UniProt entry, the sequences of proteins in these tests, tags left out. Residues count along the entry.
UniProt P08581, 1078-1345 limits assumed: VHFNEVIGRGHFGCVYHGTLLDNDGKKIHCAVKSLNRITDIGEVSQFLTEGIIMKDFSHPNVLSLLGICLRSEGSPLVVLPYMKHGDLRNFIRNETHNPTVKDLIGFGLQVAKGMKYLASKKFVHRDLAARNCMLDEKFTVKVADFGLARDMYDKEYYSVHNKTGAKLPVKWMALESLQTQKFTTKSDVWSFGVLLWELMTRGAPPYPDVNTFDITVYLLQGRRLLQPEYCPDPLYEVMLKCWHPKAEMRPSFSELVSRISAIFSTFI

SMILES	IC50
Nc1ncc(-c2ccc(C(=O)N3CCC(N4CCCC4)CC3)cc2)cc1OCc1c(Cl)cccc1Cl [Example I-41, {4-[6-Amino-5-(2,6-dichloro-benzyloxy)-pyridin-3-yl]-phenyl}-(4-pyrrolidin-1-yl-piperidin-1-yl)-methanone]	0.35 µM
Nc1ncc(-c2ccc(C(=O)N3CCC(N4CCCC4)CC3)cc2)cc1OCc1ccccc1Cl [Example I-155, {4-[6-Amino-5-(2-chloro-benzyloxy)-pyridin-3-yl]-phenyl}-(4-pyrrolidin-1-yl-piperidin-1-yl)-methanone]	1.5 µM
N#Cc1ccccc1COc1cc(-c2ccc(C(=O)N3CCC(N4CCCC4)CC3)cc2)cnc1N [Example I-165, 2-{2-Amino-5-[4-(4-pyrrolidin-1-yl-piperidine-1-carbonyl)-phenyl]-pyridin-3-yloxymethyl}-benzonitrile]	3.9 µM
CN1CCC(NC(=O)c2ccc(-c3cnc(N)c(OCc4ccccc4C#N)c3)cc2)CC1 [Example I-168, 4-[6-Amino-5-(2-cyano-benzyloxy)-pyridin-3-yl]-N-(1-methyl-piperidin-4-yl)-benzamide]	10.8 µM
Nc1ncc(-c2ccc(C(=O)N3CCC(N4CCCC4)CC3)cc2)cc1OCc1ccc(Cl)cc1Cl [Example I-176, {4-[6-Amino-5-(2,4-dichloro-benzyloxy)-pyridin-3-yl]-phenyl}-(4-pyrrolidin-1-yl-piperidin-1-yl)-methanone]	0.85 µM
CN1CCC(NC(=O)c2ccc(-c3cnc(N)c(OCc4ccc(Cl)cc4Cl)c3)cc2)CC1 [Example I-179, 4-[6-Amino-5-(2,4-dichloro-benzyloxy)-pyridin-3-yl]-N-(1-methyl-piperidin-4-yl)-benzamide]	1.12 µM
CCN(CC)CCS(=O)(=O)Nc1ccc(-c2cnc(N)c(OCc3c(F)ccc(F)c3Cl)n2)cc1 [II-17]	0.46 µM
Nc1ncc(-c2ccc(NS(=O)(=O)CCN3CCN(C(=O)CO)CC3)cc2)nc1OCc1c(F)ccc(F)c1Cl [II-19, 2-[4-(2-Hydroxy-acetyl)-piperazin-1-yl]-ethanesulfonic acid {4-[5-amino-6-(2-chloro-3,6-difluoro-benzyloxy)-pyrazin-2-yl]-phenyl}-amide]	0.45 µM
C[C@@H]1CN(C(=O)c2ccc(-c3cnc(N)c(OCc4c(F)ccc(F)c4Cl)n3)cc2)C[C@H](C)N1 [II-41, {4-[5-Amino-6-(2-chloro-3,6-difluoro-benzyloxy)-pyrazin-2-yl]-phenyl}-(3,5-dimethyl-piperazin-1-yl)-methanone]	0.48 µM
Nc1ncc(-c2ccc(C(=O)N3CCC(N4CCCC4)CC3)cc2)nc1OCc1c(F)ccc(F)c1Cl [II-42, {4-[5-Amino-6-(2-chloro-3,6-difluoro-benzyloxy)-pyrazin-2-yl]-phenyl}-(4-pyrrolidin-1-yl-piperidin-1-yl)-methanone]	0.33 µM
CN1CCC(NC(=O)c2ccc(-c3cnc(N)c(OCc4c(F)ccc(F)c4Cl)n3)cc2)CC1 [II-44, 4-[5-Amino-6-(2-chloro-3,6-difluoro-benzyloxy)-pyrazin-2-yl]-N-(1-methyl-piperidin-4-yl)-benzamide]	0.5 µM
C[C@@H]1CN(C(=O)c2cccc(-c3cnc(N)c(OCc4c(F)ccc(F)c4Cl)n3)c2)C[C@H](C)N1 [II-51, {3-[5-Amino-6-(2-chloro-3,6-difluoro-benzyloxy)-pyrazin-2-yl]-phenyl}-(3,5-dimethyl-piperazin-1-yl)-methanone]	2.56 µM

same assay, conditions: Table 2

SMILES	IC50
Nc1ncc(-c2ccc(C(=O)N3CCC(N4CCCC4)CC3)cc2)cc1OCc1ccccc1C(F)(F)F [Example I-187, {4-[6-Amino-5-(2-trifluoromethyl-benzyloxy)-pyridin-3-yl]-phenyl}-(4-pyrrolidin-1-yl-piperidin-1-yl)-methanone]	1.01 µM
CN1CCC(NC(=O)c2ccc(-c3cnc(N)c(OCc4ccccc4C(F)(F)F)c3)cc2)CC1 [Example I-190, 4-[6-Amino-5-(2-trifluoromethyl-benzyloxy)-pyridin-3-yl]-N-(1-methyl-piperidin-4-yl)-benzamide]	3.8 µM
CN1CCC(NC(=O)c2ccc(-c3cnc(N)c(OCc4ccc(C(C)(C)C)cc4)c3)cc2)CC1 [Example I-199, 4-[6-Amino-5-(4-tert-butyl-benzyloxy)-pyridin-3-yl]-N-(1-methyl-piperidin-4-yl)-benzamide]	2.92 µM
CC(C)(C)c1ccc(COc2cc(-c3ccc(C(=O)NCCCN4CCOCC4)cc3)cnc2N)cc1 [Example I-201, 4-[6-Amino-5-(4-tert-butyl-benzyloxy)-pyridin-3-yl]-N-(3-morpholin-4-yl-propyl)-benzamide]	6.3 µM
Nc1ncc(-c2ccc(C(=O)N3CCC[C@@H]3CN3CCCC3)cc2)cc1OCc1ccc(F)cc1Cl [Example I-203, {4-[6-Amino-5-(2-chloro-4-fluoro-benzyloxy)-pyridin-3-yl]-phenyl}-[(2R)-2-pyrrolidin-1-ylmethyl-pyrrolidin-1-yl]-methanone]	1.48 µM
Nc1ncc(-c2ccc(C(=O)N3CCC[C@H]3CN3CCCC3)cc2)cc1OCc1ccc(F)cc1Cl [Example I-204, {4-[6-Amino-5-(2-chloro-4-fluoro-benzyloxy)-pyridin-3-yl]-phenyl}-[(2S)-2-pyrrolidin-1-ylmethyl-pyrrolidin-1-yl]-methanone]	2.5 µM
Nc1ncc(-c2ccc(C(=O)N3CCC(N4CCCC4)CC3)cc2)cc1OCc1c(F)ccc(F)c1Cl [Example I-213, {4-[6-Amino-5-(2-chloro-3,6-difluoro-benzyloxy)-pyridin-3-yl]-phenyl}-(4-pyrrolidin-1-yl-piperidin-1-yl)-methanone]	0.049 µM
C[C@@H]1CN(C(=O)c2ccc(-c3cnc(N)c(OCc4c(F)ccc(F)c4Cl)c3)cc2)C[C@H](C)N1 [Example I-215, {4-[6-Amino-5-(2-chloro-3,6-difluoro-benzyloxy)-pyridin-3-yl]-phenyl}-(3,5-dimethyl-piperazin-1-yl)-methanone]	0.1 µM
Nc1ncc(-c2cccc(C(=O)N3CCC(N4CCCC4)CC3)c2)cc1OCc1c(F)ccc(F)c1Cl [Example I-227, {3-[6-Amino-5-(2-chloro-3,6-difluoro-benzyloxy)-pyridin-3-yl]-phenyl}-(4-pyrrolidin-1-yl-piperidin-1-yl)-methanone]	0.05 µM
Nc1ncc(-c2cccc(C(=O)N3CCC[C@H]3CN3CCCC3)c2)cc1OCc1c(F)ccc(F)c1Cl [Example I-230, {3-[6-Amino-5-(2-chloro-3,6-difluoro-benzyloxy)-pyridin-3-yl]-phenyl}-[(2S)-2-pyrrolidin-1-ylmethyl-pyrrolidin-1-yl]-methanone]	0.19 µM
CN1CCC(NC(=O)c2cccc(-c3cnc(N)c(OCc4c(F)ccc(F)c4Cl)c3)c2)CC1 [Example I-234, 3-[6-Amino-5-(2-chloro-3,6-difluoro-benzyloxy)-pyridin-3-yl]-N-(1-methyl-piperidin-4-yl)-benzamide]	0.23 µM
CC(Oc1cc(-c2ccc(C(=O)NC3CCN(C)CC3)cc2)cnc1N)c1c(Cl)ccc(F)c1Cl (centres unmarked) [Example I-292, 4-{6-Amino-5-[1-(2,6-dichloro-3-fluoro-phenyl)-ethoxy]-pyridin-3-yl}-N-(1-methyl-piperidin-4-yl)-benzamide]	0.069 µM
CC(=O)N1CCN(CCNC(=O)c2ccc(-c3cnc(N)c(OC(C)c4c(Cl)ccc(F)c4Cl)c3)cc2)CC1 (centres unmarked) [Example I-300, N-[2-(4-Acetyl-piperazin-1-yl)-ethyl]-4-{6-amino-5-[1-(2,6-dichloro-3-fluoro-phenyl)-ethoxy]-pyridin-3-yl}-benzamide]	0.059 µM
CC(Oc1cc(-c2ccc(C(=O)N3CC[C@H](N)C3)cc2)cnc1N)c1c(Cl)ccc(F)c1Cl (stereo partly drawn) [Example I-303, (4-{6-Amino-5-[1-(2,6-dichloro-3-fluoro-phenyl)-ethoxy]-pyridin-3-yl}-phenyl)-((S)-3-amino-pyrrolidin-1-yl)-methanone]	0.059 µM
CC(Oc1cc(-c2cccc(C(=O)NCCCN3CCOCC3)c2)cnc1N)c1c(Cl)ccc(F)c1Cl (centres unmarked) [Example I-317, 3-{6-Amino-5-[1-(2,6-dichloro-3-fluoro-phenyl)-ethoxy]-pyridin-3-yl}-N-(3-morpholin-4-yl-propyl)-benzamide]	0.059 µM
CC(Oc1cc(-c2ccc(NS(=O)(=O)CCN3CCC(O)CC3)cc2)cnc1N)c1c(Cl)ccc(F)c1Cl (centres unmarked) [Example I-324]	0.059 µM

same assay, conditions: plain numbers in column Met IC50 (μM) of Table 2

SMILES	IC50
CC(Oc1cc(-c2ccc(C(=O)NCCN3CCCC3)cc2)cnc1N)c1c(Cl)cccc1Cl (centres unmarked) [Example I-400, 4-{6-Amino-5-[1-(2,6-dichloro-phenyl)-ethoxy]-pyridin-3-yl}-N-(2-pyrrolidin-1-yl-ethyl)-benzamide]	0.059 µM

From US20050009840A1 (SUGEN, INC., priority 2003, published 2005)
